Consider four molecules from publication PMC11602988 (The Journal of Biological Chemistry, 2024).

Positions count from the first letter of the chain named. Read-outs that look alike come from different tables or passages of the source.

The target of one assay is T1, OCT1 WT (Homo sapiens, UniProt O15245).
T1 sequence (O15245 1-554): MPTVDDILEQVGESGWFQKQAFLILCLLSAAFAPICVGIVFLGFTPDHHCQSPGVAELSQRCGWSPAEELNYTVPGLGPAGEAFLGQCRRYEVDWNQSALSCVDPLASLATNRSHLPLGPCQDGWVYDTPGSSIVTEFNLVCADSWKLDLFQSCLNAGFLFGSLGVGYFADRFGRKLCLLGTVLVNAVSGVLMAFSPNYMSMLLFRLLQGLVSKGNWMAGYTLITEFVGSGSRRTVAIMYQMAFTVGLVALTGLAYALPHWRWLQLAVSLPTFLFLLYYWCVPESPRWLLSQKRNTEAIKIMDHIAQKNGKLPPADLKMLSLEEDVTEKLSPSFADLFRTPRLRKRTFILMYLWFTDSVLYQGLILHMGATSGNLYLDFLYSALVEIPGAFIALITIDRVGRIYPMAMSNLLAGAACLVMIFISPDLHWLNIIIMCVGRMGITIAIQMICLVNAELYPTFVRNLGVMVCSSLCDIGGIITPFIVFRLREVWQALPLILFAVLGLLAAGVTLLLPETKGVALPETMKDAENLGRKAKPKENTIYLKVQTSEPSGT
Nature of the assay: Uptake screening (transport ratio over empty vector), HEK293 cells overexpressing OCT1 WT.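 Further: intracellular substrate levels quantified by HPLC–tandem mass spectrometry after uptake in HBSS+ buffer at 37 °C, stable Flp-In HEK293 lines, fold change versus empty vector–transfected cells.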 Type of assay: cell-based. Also noted: expressed in transfected cells.

For assay [1], the target named is T2, OCT1 Phe244Ala variant (Homo sapiens, UniProt O15245, F244A).
T2 sequence (O15245 1-554 F244A): T1 sequence (O15245 1-554) with F244A
Nature of the assay: Uptake screening (transport ratio over empty vector), HEK293 cells overexpressing OCT1 Phe244Ala variant.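 Further: stably transfected HEK293 cells, intracellular substrate quantified by HPLC-tandem mass spectrometry in cell lysates, uptake in HBSS+ buffer.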 The format is cell-based. Also noted: expressed in transfected cells.

Assay [2] concerns the target T2, OCT1 Phe244Ala variant. The conditions noted are these: cited from earlier work.
The mark [3] stands for this setting: uptake ratio over empty vector, HEK293 cells overexpressing OCT1 WT.
Setting [4] is: Phe244Ala uptake relative to WT.
[5] abbreviates: uptake ratio over empty vector, HEK293 cells overexpressing OCT1 Phe244Ala.

For the molecule `CCCC(=O)Nc1ccc(OCC(O)CNC(C)C)c(C(C)=O)c1` (stereo not shown) [Acebutolol], the Mean_transport_ratio_WT on OCT1 WT (setting [3]) is on record as 6.361. Further, on OCT1 Phe244Ala variant [1] (setting [4]), the relative_Phe244Ala_uptake_in% is on record as 28.562%. For the same molecule, the Mean_transport_ratio_Phe244Ala on OCT1 Phe244Ala variant [1] (setting [5]) amounted to 2.531.
Regarding `CC(C)(C)NCC(O)c1cc(O)cc(O)c1` (stereo not shown) [Terbutaline], the Mean_transport_ratio_WT on OCT1 WT (setting [3]) came to 7.81. Moreover, the relative_Phe244Ala_uptake_in% on OCT1 Phe244Ala variant [1] (Phe244Ala uptake relative to OCT1 WT) is recorded as 139.004%. Moreover, on OCT1 Phe244Ala variant [1] (setting [5]), the Mean_transport_ratio_Phe244Ala is on record as 10.466.
For `CC(Cc1ccc(O)cc1)NCC(O)c1cc(O)cc(O)c1` (stereo not shown) [Fenoterol], the “Consequence of the Phe244Ala substitution on transport” value at OCT1 Phe244Ala variant [2] is reported as “increased transport rates in a stereoselective manner”. Further, the Mean_transport_ratio_WT on OCT1 WT is 14.554. In addition, at OCT1 Phe244Ala variant [1], the Mean_transport_ratio_Phe244Ala was determined as 31.027 and the relative_Phe244Ala_uptake_in% was found to be 221.547%.
Turning to `COc1ccc(CCNC[C@H](O)c2ccc(O)cc2)cc1OC` [Denopamine], the Mean_transport_ratio_WT on OCT1 WT (setting [3]) turned out to be 3.628. Moreover, on OCT1 Phe244Ala variant [1] (setting [4]), the relative_Phe244Ala_uptake_in% came out at 20.746%. Moreover, on OCT1 Phe244Ala variant [1] (setting [5]), the Mean_transport_ratio_Phe244Ala was 1.545.
